# Measured values from patent US6461856B2 (priority 1999, dated 2002).
# Tested on: Rhodococcus erythropolis strain HL PM-1
# Conditions: control cells grown in the absence of DNP; substance added to 0.55 mM; 30° C.; FIG. 1
substance,measurement,value
acetate,respiration (rate of O2 consumption) upon addition of the substance,did
